# Ab-14 light chain CDR variants: yeast mating affinities

All variants were tested on one target, the spike HR2 peptide PDVDLGDISGINAS (SARS-CoV-2).

The variants keep the heavy chain, the linker and the frameworks of Ab-14 (scFv order VH, a (GGGGS)3 linker, VL).
VH: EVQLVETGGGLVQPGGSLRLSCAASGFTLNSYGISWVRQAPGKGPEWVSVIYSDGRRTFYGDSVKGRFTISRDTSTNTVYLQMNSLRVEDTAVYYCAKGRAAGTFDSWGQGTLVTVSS
VL: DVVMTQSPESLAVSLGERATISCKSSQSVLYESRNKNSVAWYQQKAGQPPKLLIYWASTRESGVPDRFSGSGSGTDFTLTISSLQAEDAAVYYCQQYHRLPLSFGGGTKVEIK

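The starting antibody came from a phage panning campaign against this peptide. These sequences belong to a second round, designed from the earlier measurements on random variants of the parent. Their group label is 14L_En_Gen (En: ensemble of fine-tuned language models; Gen: genetic algorithm). The assay is AlphaSeq: two haploid yeast populations carry antibody and antigen on their surface. After mating in shaken culture at 30 °C for 16 h, diploids were selected and their barcode pairs sequenced. Each replicate has its own calibration line, from reference interactions of the BCL2 family. The assay was run in six technical replicates.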

Each variant is given by its three light chain CDRs, as the data file delimits them; those of the parent are KSSQSVLYESRNKNSVA, WASTRES, QQYHRLPLS. Scale: log10 of Kd in nM, estimated from mating counts; low values are strong binders. A mean of the replicates is given; it leaves out those without a signal. "ND" means that the variant was in the library but no mating with the target was seen in that replicate; the authors take this as a sign of poor binding, and no number exists. The authors averaged sequences with at least three values out of six and counted those with two or fewer as poor binders. The parent sequence was in this pool as ten entries: three were never detected, three once, and four in most replicates, with averages from 0.34 to 2.37. Empty control strains, which show no peptide, gave a signal in 4% of pairings with all light chain designs; the median was 2.64 and 95% of these signals were weaker than 1.59. No background was subtracted. The control count says in how many pairings with the empty strains this scFv gave a signal, with their mean in brackets. The range of this assay differs from that of the first round, and the authors advise against merging the two.

| # | CDR-L1 | CDR-L2 | CDR-L3 | log10 Kd, replicates | mean log10 Kd (nM) | signal with controls |
|---|---|---|---|---|---|---|
| 1 | QIYQAMHTLSQQKDNVA | DVNERGT | QQYFRLPLS | 0.46 / 0.33 / 0.36 / 0.35 / 0.29 / 0.39 | 0.36 | 2/18 (3.90) |
| 2 | MISQLYNMGSFAINSVA | QASERCN | QQYDRLPLI | 1.01 / 0.91 / 1.58 / 1.17 / 0.96 / 1.02 | 1.11 | 1/18 (3.28) |
| 3 | NISHFMDTTAKHNNNVA | EMTMREN | QQYHHLPLS | 0.50 / 0.73 / 0.57 / 0.23 / 0.62 / 0.81 | 0.58 | 1/18 (4.11) |
| 4 | TLYGLTNSMLKNKDNVA | EMSTREA | QQYDRLPLA | 0.57 / 0.57 / 0.38 / 0.43 / 0.65 / 0.97 | 0.60 | 1/18 (3.51) |
| 5 | TISQMTSLFSQSINNVA | EMSTREP | QQYDRLPLA | ND / ND / ND / ND / ND / ND | ND | 0/18 |
| 6 | MISQLYNMGSFAINSVA | QASERNA | QQYDRLPLI | 0.65 / 0.96 / 1.08 / 1.38 / 1.28 / 1.01 | 1.06 | 2/18 (2.74) |
| 7 | KISQMVRVGSTVSNSIA | EEQTRAK | QQYHRLPLA | 0.86 / 1.08 / 0.76 / 0.81 / 1.09 / 1.29 | 0.98 | 2/18 (2.29) |
| 8 | KLGYNTGTESFRDDNIA | DVRERDE | QQYHRLPLS | 0.84 / 0.71 / 0.47 / 0.69 / 1.25 / 0.91 | 0.81 | 2/18 (2.79) |
| 9 | TLSQMSGIEAVKHNSVA | ENSTREN | QQYDRLPLS | ND / 5.04 / 2.48 / 2.33 / 2.06 / 2.90 | 2.96 | 2/18 (2.57) |
| 10 | HITMGMYVSGRYKSNIA | QAETRMK | QQYDRLPLI | 1.31 / 1.04 / 1.26 / 1.18 / 1.09 / 1.21 | 1.18 | 0/18 |
| 11 | KVSEFMKGLMARTDSIA | DNVTRNK | QQYDRLPLS | 1.78 / 2.03 / 2.21 / 2.45 / 2.79 / 2.15 | 2.23 | 0/18 |
| 12 | KLSMITGHMSMQRNNVA | EMVTREN | QQYDRLPLA | 1.07 / 1.24 / 0.98 / 1.15 / 1.50 / 2.13 | 1.34 | 0/18 |
| 13 | KVSMLINQTFENSNNVA | EMVTRTK | QQYNRLPLS | 0.83 / 0.76 / 0.60 / 0.66 / 1.12 / 1.04 | 0.84 | 0/18 |
| 14 | HMSMLTLGGMRQKNSVA | QMTTREN | QQYDRLPLT | 1.14 / 0.78 / 0.77 / 0.85 / 1.01 / 1.09 | 0.94 | 0/18 |
| 15 | QIYQAGHTLMQAINNVA | DVTNRSN | QQYNRLPLS | 0.54 / 0.22 / 0.31 / -0.18 / 0.48 / 0.19 | 0.26 | 0/18 |
| 16 | KIGATLNTLYEQKNNVA | DLVMRES | QQYHRLPLS | 0.86 / 0.79 / 0.35 / 0.70 / 1.24 / 0.72 | 0.78 | 1/18 (3.89) |
| 17 | SLGLVTMLEYAGRNNVA | NNSTREQ | QQYDRLPLS | 1.58 / 1.71 / 1.44 / 1.57 / 1.58 / 2.17 | 1.68 | 0/18 |
| 18 | HITYGMQVAGRHSKSIA | QAETRAK | QQYDRLPLT | ND / ND / ND / 3.34 / ND / ND | 3.34 | 0/18 |
| 19 | KISQMVRVGSTHSNSIA | EEATRAK | QQYHRLPLA | 0.80 / 0.64 / 0.87 / 0.65 / 0.72 / 0.60 | 0.71 | 2/18 (2.93) |
| 20 | MLSMVTEGMARKHSSVA | DNSTREA | QQYDRLPLS | ND / ND / ND / ND / ND / ND | ND | 2/18 (2.11) |
| 21 | TLYGLTNSMSKNKDNVA | EMSTREL | QQYDRLPLM | ND / ND / ND / ND / ND / ND | ND | 0/18 |
| 22 | MISQLYNFGQFAINSVA | QASQRNA | QQYDRLPLM | ND / ND / ND / ND / ND / ND | ND | 0/18 |
| 23 | QIYQAMHTLMQAKNNIA | DVTNRQN | QQYHRLPLS | 0.93 / 0.48 / 0.66 / 0.58 / 0.69 / 0.66 | 0.66 | 1/18 (2.93) |
| 24 | HMSMLTLQGMRHRNSVA | QMTTREN | QQYDRLPLA | 2.13 / 1.90 / 2.46 / 1.78 / 2.07 / 1.95 | 2.05 | 0/18 |
| 25 | MMSQVTGQGTRHRNNVA | QTSTREP | QQYDRLPLI | 1.31 / 0.55 / 1.27 / 0.74 / 1.06 / 1.02 | 0.99 | 0/18 |
| 26 | KLTQVTGHLSVEKNNVA | EMETREN | QQYDRLPLS | 0.43 / 1.61 / ND / 1.73 / 0.76 / 0.57 | 1.02 | 0/18 |
| 27 | KLSMTHGMELINRNSVA | ELVTRMN | QQYNRLPLS | 1.44 / 1.32 / 0.77 / 0.85 / 0.77 / 1.10 | 1.04 | 0/18 |
| 28 | MLSQMWAIGMKVSNSVA | QASTRFD | QQYERLPLI | ND / ND / ND / ND / 1.56 / 1.43 | 1.49 | 1/18 (1.73) |
| 29 | IVSQLMLWGLHAKNSIA | EAVMRLN | QQYDRLPLI | ND / ND / ND / ND / ND / ND | ND | 0/18 |
| 30 | TISGVMQQMSHSKSNVA | EVSMRLE | QQYVRLPLA | 1.17 / 0.71 / 0.73 / 0.37 / 0.54 / 1.04 | 0.76 | 0/18 |
| 31 | IVSQLFLWGMHAKNSIA | EAELRLN | QQYDRLPLI | 2.42 / 1.04 / 1.25 / 0.63 / 1.12 / 0.91 | 1.23 | 0/18 |
| 32 | MMSQVSGSGTRHRNNVA | QTSMREI | QQYDRLPLI | 1.41 / 1.28 / 1.37 / 1.09 / 1.35 / 1.27 | 1.30 | 3/18 (3.43) |
| 33 | MMSQVMGSGQRHRNNVA | QTSMREP | QQYDRLPLI | 2.38 / 1.77 / 1.16 / 0.69 / 1.48 / 1.97 | 1.58 | 0/18 |
| 34 | TISQITSLFTQNINNVA | EVSTRCN | QQYDRLPLS | 1.06 / 1.20 / 0.92 / 1.25 / 0.89 / 1.11 | 1.07 | 2/18 (3.33) |
| 35 | HMSMLTLSGMYHRNSVA | QMTTREN | QQYDHLPLS | 0.93 / 1.96 / 0.85 / 2.08 / 0.56 / 1.11 | 1.25 | 0/18 |
| 36 | KISMLINQTFQMANNVA | EMVTREK | QQYNRLPLS | 0.93 / 0.41 / 0.88 / 0.43 / 0.59 / 0.77 | 0.67 | 1/18 (2.82) |
| 37 | NIYQAMHTLSQMKDNVA | DVNERGD | QQYYRLPLS | -0.08 / -0.13 / -0.16 / -0.20 / 0.03 / -0.12 | -0.11 | 0/18 |
| 38 | KLSMVTGHMLMSKDNVA | EMETREN | QQYDRLPLS | 1.67 / 1.14 / 1.71 / 3.99 / 1.63 / 1.86 | 2.00 | 0/18 |
| 39 | MISQLYNMGSFAINSVA | QASERNN | QQYDRLPLM | 1.26 / 1.30 / 0.79 / 1.34 / 0.86 / 1.56 | 1.18 | 0/18 |
| 40 | MMSQVTGLGQRHRNNVA | QTSEREP | QQYDRLPLI | 0.47 / 0.60 / 0.47 / 0.44 / 0.46 / 0.61 | 0.51 | 1/18 (2.40) |
| 41 | QLSMLTGHVSMSKNNVA | EMETRCN | QQYDRLPLS | 0.31 / 1.18 / 0.70 / 0.78 / 0.32 / 1.11 | 0.73 | 0/18 |
| 42 | MISQLMNMGTFAINSVA | QASIRNQ | QQYDRLPLI | 2.21 / 1.57 / 2.27 / 1.45 / 2.26 / 2.70 | 2.08 | 0/18 |
| 43 | MVSQLMLWGLHAKNSIA | EAVMRLN | QQYDRLPLM | ND / ND / ND / ND / ND / 2.34 | 2.34 | 2/18 (2.73) |
| 44 | HLAAMWGLESVKPNNVA | ENSTRED | QQYDRLPLS | ND / ND / ND / ND / ND / ND | ND | 0/18 |
| 45 | MVTQMAMSGMTNKRSVA | NASTRED | QQYHRLPLI | 0.48 / 0.45 / 0.27 / 0.35 / 0.61 / 0.68 | 0.47 | 3/18 (3.42) |
| 46 | TLYGLSNSMSKNKNSVA | EMTTREK | QQYDRLPLI | 1.10 / 0.74 / 1.21 / 1.33 / 1.27 / 1.30 | 1.16 | 0/18 |
| 47 | KLSMITGHMSMSRNNVA | EMVTREN | QQYERLPLS | 0.75 / 0.49 / 0.53 / 0.07 / 0.09 / 0.22 | 0.36 | 0/18 |

The first 5 variants above that were never detected:

| CDR-L1 | CDR-L2 | CDR-L3 | log10 Kd, replicates | mean log10 Kd (nM) | signal with controls |
|---|---|---|---|---|---|
| TISQMTSLFSQSINNVA | EMSTREP | QQYDRLPLA | ND / ND / ND / ND / ND / ND | ND | 0/18 |
| MLSMVTEGMARKHSSVA | DNSTREA | QQYDRLPLS | ND / ND / ND / ND / ND / ND | ND | 2/18 (2.11) |
| TLYGLTNSMSKNKDNVA | EMSTREL | QQYDRLPLM | ND / ND / ND / ND / ND / ND | ND | 0/18 |
| MISQLYNFGQFAINSVA | QASQRNA | QQYDRLPLM | ND / ND / ND / ND / ND / ND | ND | 0/18 |
| IVSQLMLWGLHAKNSIA | EAVMRLN | QQYDRLPLI | ND / ND / ND / ND / ND / ND | ND | 0/18 |

Source: Li et al. 2023 (doi:10.1038/s41467-023-39022-2), MIT Lincoln Laboratory and A-Alpha Bio; data file from the FLAb repository.